Experimental data: ChEMBL document CHEMBL4402605, “A Chemical Switch for Transforming a Purine Agonist for Toll-like Receptor 7 to a Clinically Relevant Antagonist” (J Med Chem, 2020)
The source made the active and inactive calls. The calls are words filed in the database; no cut-off is given here.

Target: T1, Toll-like receptor 8 (Homo sapiens) (UniProt Q9NR97)
T1 sequence (whole entry): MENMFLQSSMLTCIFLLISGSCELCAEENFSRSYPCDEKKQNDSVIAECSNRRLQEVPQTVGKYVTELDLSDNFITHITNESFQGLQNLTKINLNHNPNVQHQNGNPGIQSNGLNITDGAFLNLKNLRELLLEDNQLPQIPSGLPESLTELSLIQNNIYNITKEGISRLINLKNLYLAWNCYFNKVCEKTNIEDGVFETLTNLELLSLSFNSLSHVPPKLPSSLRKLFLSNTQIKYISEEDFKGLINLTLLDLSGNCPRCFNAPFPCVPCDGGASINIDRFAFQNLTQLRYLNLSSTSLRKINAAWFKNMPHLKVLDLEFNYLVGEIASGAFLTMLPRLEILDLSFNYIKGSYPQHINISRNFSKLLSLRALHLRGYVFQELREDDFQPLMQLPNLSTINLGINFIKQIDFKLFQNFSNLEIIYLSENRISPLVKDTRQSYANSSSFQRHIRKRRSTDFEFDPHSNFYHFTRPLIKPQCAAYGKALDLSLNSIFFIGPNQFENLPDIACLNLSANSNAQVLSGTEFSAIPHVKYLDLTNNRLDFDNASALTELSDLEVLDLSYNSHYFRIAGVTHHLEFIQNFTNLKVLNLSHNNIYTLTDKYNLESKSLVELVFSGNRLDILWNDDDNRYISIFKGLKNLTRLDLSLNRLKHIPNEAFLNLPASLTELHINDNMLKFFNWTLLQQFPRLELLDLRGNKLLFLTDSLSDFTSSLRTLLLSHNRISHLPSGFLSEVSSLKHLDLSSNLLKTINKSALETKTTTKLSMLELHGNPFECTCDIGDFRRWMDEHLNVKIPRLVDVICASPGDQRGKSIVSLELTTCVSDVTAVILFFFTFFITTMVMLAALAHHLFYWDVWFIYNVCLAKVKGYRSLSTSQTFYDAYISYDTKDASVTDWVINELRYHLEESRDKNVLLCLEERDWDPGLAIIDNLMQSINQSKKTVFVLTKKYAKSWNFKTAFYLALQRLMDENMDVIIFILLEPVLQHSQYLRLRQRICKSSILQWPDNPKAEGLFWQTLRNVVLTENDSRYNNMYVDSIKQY
Experiment: Antagonist activity at human TLR8 expressed in HEK-Blue cells assessed as inhibition of CL075-induced NFkappaB activation by measuring reduction in SEAP level up to 50 uM after overnight incubation using qunati-blue reagent by SEAP reporter gene-based spectrophotometric method
Format: cell-based

## CCN1CCN(CCCn2cnc3c(N4CCN(C5CCCC5)CC4)ncnc32)CC1
  inhibition: inactive
